## Antibody variant affinities, Ab-95 light chain, assay 2

The target is the same throughout: PDVDLGDISGINAS, from the HR2 region of SARS-CoV-2 spike.

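The starting antibody came from a phage panning campaign against this peptide. AAYL52 was designed without a model: most single CDR substitutions and a random sample of double and triple ones. In AlphaSeq, yeast of one mating type display the scFv and yeast of the other type display the target. Pairs that bind mate more often; barcode pairs of the diploids are counted by sequencing. The ratio of observed to expected reads was calibrated, replicate by replicate, on BCL2-family standards whose Kd was known from biolayer interferometry. Each pool was mated in three replicate cultures.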

Parent: Ab-95, a human scFv built as VH, three GGGGS repeats, VL. Only the CDRs of the light chain vary.
VH: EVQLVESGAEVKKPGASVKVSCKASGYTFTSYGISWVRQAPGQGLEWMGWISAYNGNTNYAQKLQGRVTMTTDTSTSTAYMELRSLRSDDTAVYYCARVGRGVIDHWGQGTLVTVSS
VL: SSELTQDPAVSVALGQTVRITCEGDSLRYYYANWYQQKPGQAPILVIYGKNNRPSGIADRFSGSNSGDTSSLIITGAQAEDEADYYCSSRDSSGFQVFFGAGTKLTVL

The parent's light chain CDRs are EGDSLRYYYAN, GKNNRPS, SSRDSSGFQVF; each variant's own CDRs replace them letter for letter. Values are log10 of the apparent Kd in nM; lower means stronger binding. An entry "nd" has no value in the source: the pair was not observed among the diploids in that replicate. This suggests poor binding but is not conclusive.

CDR-L1,CDR-L2,CDR-L3,"log10 Kd, replicates",signal with controls
EHDCLRYYYAN,GKNNRFS,SSRDSSGFQVF,4.16 4.37 nd,6 of 9 (4.22)
EGDSLRYYHAN,GKNNRQS,SKRDSSGFQVF,3.03 3.69 nd,4 of 9 (3.82)
NGDSLRYYYAN,GKNVRPS,SSRDSSGFQVF,2.17 2.53 2.02,2 of 9 (4.11)
EGLSLRYYYAN,GKNNRPS,SSRDSSGKQVT,2.86 2.53 2.40,5 of 9 (4.01)
EGDSLRHYYHN,GKNNRPS,SSRDSSGFQDF,3.58 3.96 4.22,8 of 9 (4.54)
EGDSERYYYAN,GKNNRPS,SSRASSGFQVF,4.23 nd 4.06,2 of 9 (4.50)
EGVSLRYYYAN,GTNNRPS,SSRDSHGFQVF,3.09 3.07 nd,3 of 9 (3.94)
EGDSLRYYYAN,GKNYRMS,SSRDSSGFCVF,3.79 3.32 4.22,2 of 9 (4.14)
CHDSLRYYYAN,GKNNRPS,SSRDSSGFQVA,2.34 3.48 2.64,2 of 9 (4.48)
NSDSLRYYYAN,GKNNRPS,SSRDSSGFSVF,3.20 3.45 nd,2 of 9 (4.04)
EGDSLRYYYAN,GKNIRPS,SSPDCSGFQVF,2.48 2.71 3.35,1 of 9 (5.31)
EGDSLRYTYAN,GKNNRPS,SSRVSSGFAVF,nd nd nd,1 of 9 (4.40)
EGDSLRYYYAN,GKNPRAS,SSRDKSGFQVF,nd nd nd,0 of 9
EGDDLNYYYAN,GKNNRPI,SSRDSSGFQVF,2.67 2.28 2.29,2 of 9 (3.70)
KGLSLRYKYAN,GKNNRPS,SSRDSSGFQVF,2.07 1.86 2.22,2 of 9 (3.77)
ESDYLRYYYAN,GKNNRPS,SSRDSSGFQVF,2.81 3.23 3.17,2 of 9 (3.99)
EQDSLRYYYGN,GKNNRAS,SSRDSSGFQVF,4.25 nd nd,1 of 9 (3.30)
ERDSLRYYYAN,GKNNSPT,SSRDSSGFQVF,3.24 nd 4.10,1 of 9 (2.87)
MGDSLRYYYAN,GKENRPS,SSHDSSGFQVF,2.65 3.11 3.07,3 of 9 (3.40)
EGDSSQFYYAN,GKNNRPS,SSRDSSGFQVF,3.17 nd nd,3 of 9 (2.63)
EGDSKRYYYAN,GKNNRPS,RSRDSSGFAVF,nd nd nd,2 of 9 (4.57)
EGDSLRYYYAN,GKNNRPS,TSRMYSGFQVF,2.40 2.08 2.54,2 of 9 (3.84)
EGDSLNYYYAN,AKWNRPS,SSRDSSGFQVF,2.94 4.29 3.42,4 of 9 (4.18)
EGLSLRYMYAN,GKNNRPS,WSRDSSGFQVF,2.66 2.12 2.19,1 of 9 (3.21)
EGDSLRYYYAN,GHNNRPS,SSRDSSGQQVF,2.26 2.56 2.19,2 of 9 (3.48)
EGDNLRKYYAN,GKNNRPS,SSRDSSGFQVF,3.44 3.70 nd,4 of 9 (4.49)
EGDSLRYYYAN,GGNTRPS,SSRDSSFFQVF,nd nd nd,2 of 9 (4.02)
EGDSFRYYYAN,GKNNRPS,SSRDSSGFQYF,2.51 2.65 2.41,1 of 9 (4.17)
EADFLRYYYAN,GKNNRPS,SSRDSSGFPVF,3.32 3.07 nd,3 of 9 (3.67)
EGDSLRYYYAN,GKNNKPS,SSRSSSPFQVF,4.62 3.08 3.63,5 of 9 (3.69)
EGDSLRYYYAN,GKNNRSS,SSRDSIGNQVF,2.81 2.84 2.96,5 of 9 (4.24)

The closing 3 entries, repeated:

CDR-L1,CDR-L2,CDR-L3,"log10 Kd, replicates",signal with controls
EADFLRYYYAN,GKNNRPS,SSRDSSGFPVF,3.32 3.07 nd,3 of 9 (3.67)
EGDSLRYYYAN,GKNNKPS,SSRSSSPFQVF,4.62 3.08 3.63,5 of 9 (3.69)
EGDSLRYYYAN,GKNNRSS,SSRDSIGNQVF,2.81 2.84 2.96,5 of 9 (4.24)

As a blank, each scFv also met three strains without target: over library AAYL52, 28% of these pairings were detected, typically at 3.91 and seldom below 2.90. For each scFv, signals with the empty controls are counted beside the result, with their mean in brackets. For reference, the parent read 2.31 as the reference entry and 2.25 as a member of this library.

Source: Engelhart et al. 2022 (doi:10.1038/s41597-022-01779-4), MIT Lincoln Laboratory and A-Alpha Bio; data file from the FLAb repository.